Procedure: The experimental conditions are as follows:
Detector: Ultraviolet absorptiometer (wave length: 220 nm)
Column: A stainless steel tube of 6 mm ID and 15 cm length being packed with octadecylated silica gel of […] in particle size designed for use in liquid chromatograph.
Mobile phase: As prepared by dissolving 0.4 g of crystalline sodium dihydrogenphosphate and 0.3 g of sodium chloride in 50 ml of water, and adding 500 ml of methanol and 450 ml of acetonitrile, followed by addition of phosphoric acid to adjust to pH 4.0.
Flow rate: As regulated so that the retention time may be about 12 min.

Substance: L-Ascorbic acid-2-O-maleic acid-α-tocopherol diester.1-propanol adduct [Example 1]
- Storage stability (in words): superior to the ethanol adduct in storage stability

From patent US6828348B2, “L-ascorbic acid-2-o-maleic acid-a-tocopherol diester 1-propanol adduct and process for producing the same” (Senju Pharmaceutical Co., Ltd., priority 2002, dated 2004)
